# Source: US20030148269A1, “Centrifugally-enhanced method of determining ligand/target affinity” (priority 1999, published 2003)
# Protein sequences, listed by entry. Tags and fused reporters are not part of them. Residues count along the entry.
# UniProt P08254, 100-273: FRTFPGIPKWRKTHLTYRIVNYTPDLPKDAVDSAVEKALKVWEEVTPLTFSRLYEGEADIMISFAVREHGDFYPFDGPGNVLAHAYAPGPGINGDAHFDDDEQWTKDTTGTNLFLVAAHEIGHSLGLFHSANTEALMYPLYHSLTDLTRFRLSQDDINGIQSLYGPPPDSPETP
# Biological target: stromelysin catalytic domain (SCD) (Homo sapiens, UniProt P08254)
# Assay: Affinity (Ki) for SCD previously determined by another method
# Format: binding
# Details: result in words
smiles,measurement,value
O=C(Nc1ccccc1)c1ccccc1 [N-phenylbenzamide],Affinity (Ki),Non-
